# Antibody variant affinities, Ab-95 light chain, assay 2

Antigen: PDVDLGDISGINAS, a 14-residue peptide of the SARS-CoV-2 spike HR2 region.

Ab-95 is the parent antibody, in scFv form: VH, then the linker GGGGSGGGGSGGGGS, then VL. The heavy chain is unchanged in all variants.
VH: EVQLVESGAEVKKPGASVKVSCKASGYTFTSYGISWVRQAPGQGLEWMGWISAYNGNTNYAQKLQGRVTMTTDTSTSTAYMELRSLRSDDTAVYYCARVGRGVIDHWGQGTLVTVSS
VL: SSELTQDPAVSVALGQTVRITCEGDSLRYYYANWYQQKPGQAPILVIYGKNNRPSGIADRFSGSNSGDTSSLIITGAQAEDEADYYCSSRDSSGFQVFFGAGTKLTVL

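The starting antibody came from a phage panning campaign against this peptide. Variants in AAYL52 differ from the parent at up to three CDR positions; double and triple changes were sampled at random. In AlphaSeq, yeast of one mating type display the scFv and yeast of the other type display the target. Mating (16 h, 30 °C) was followed by selection of diploids and sequencing of their barcodes. The ratio of observed to expected reads was calibrated, replicate by replicate, on BCL2-family standards whose Kd was known from biolayer interferometry. Each pool was mated in three replicate cultures.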

Each variant is given by its three light chain CDRs, as the data file delimits them; those of the parent are EGDSLRYYYAN, GKNNRPS, SSRDSSGFQVF.
Numbers give log10(Kd / nM), so 0 is 1 nM and 3 is 1 µM. Smaller is tighter.
The mean shown is taken over the replicates in which the pair was detected.
A pair that was not seen in that replicate is written "n.d."; this usually means weak binding, but a binder can also be missed.
Nonspecific signal, from three strains lacking the peptide, appeared in 28% of pairings of library AAYL52, centred on 3.91 (5% of these signals below 2.90); values are not corrected for it. Also given: how often the same scFv was detected with the empty control strains, with their mean in brackets.
For reference, the parent read 2.31 as the reference entry and 2.25 as a member of this library.

CDR-L1 | CDR-L2 | CDR-L3 | log10 Kd, replicates | mean, log10 nM | empty controls
SGPSLRYYYAN | GKNNRPS | SYRDSSGFQVF | 2.95 2.73 2.50 | 2.73 | 2/9 (4.51)
EGDSLRYYYAN | GKNNRPS | CSFDSSKFQVF | 2.24 1.93 1.81 | 1.99 | 0/9
EGDSLRYYYAN | GKNGRPW | SSRDSSRFQVF | 4.85 5.49 n.d. | 5.17 | 5/9 (3.63)
EGDSLRYYYAN | GKHNRPS | SYRDSSGTQVF | n.d. 3.43 n.d. | 3.43 | 4/9 (4.18)
EGDSLRYYYAN | GGNNRPS | RSRDSSGFWVF | 2.71 2.41 2.09 | 2.40 | 4/9 (4.58)
AGDSLRYYYAN | GKNYRPS | SSRDSSGFQVF | 2.35 2.33 2.00 | 2.23 | 5/9 (4.16)
HGDSLRYYIAN | GKNNRPD | SSRDSSGFQVF | 2.28 2.11 2.24 | 2.21 | 0/9
EGDPLRYYYAN | GKNNRPS | SRRDSSGFLVF | 3.09 2.72 3.35 | 3.05 | 3/9 (3.77)
EGGSPRYYYAN | GKNNRPS | SSRDSSEFQVF | 5.05 4.71 n.d. | 4.88 | 5/9 (4.07)
EFDSLRYYYAN | GKNNYPS | SSRDSSWFQVF | 3.75 3.98 n.d. | 3.87 | 3/9 (4.62)
EGDSLRYYYAC | GKNNRPS | QSRDSSGFDVF | n.d. n.d. n.d. | n.d. | 1/9 (3.71)
SGDSLRYYYAN | GKNNRPS | SSRDFSGFQVF | 2.20 2.46 2.50 | 2.39 | 3/9 (3.51)
EGDSLRYYYAN | GKNNRPL | SSRDSTGFQAF | 2.98 3.27 2.52 | 2.92 | 2/9 (4.16)
EGDSLRYYYAD | GKNNRPS | SSRDSSGFLVF | 4.13 n.d. 2.93 | 3.53 | 2/9 (3.41)
EGDSLRYYYYG | GKNNVPS | SSRDSSGFQVF | 4.55 n.d. n.d. | 4.55 | 3/9 (3.57)
EGDSLGYYYAC | GKNNRPS | SQRDSSGFQVF | 1.80 1.54 0.95 | 1.43 | 3/9 (3.46)
EGDSLWYYYLN | GKNNRPS | SSRDSSGFQPF | 3.85 2.92 n.d. | 3.39 | 5/9 (3.89)
EGDSLRYYPAN | GKNNRPS | SSRPSSGFTVF | 3.83 n.d. n.d. | 3.83 | 3/9 (4.16)
EGDSLRYYYAN | GKNNRPS | SSVDSSGNPVF | n.d. n.d. 4.48 | 4.48 | 4/9 (3.47)
EGDSLRYYYEN | GKNNRPS | HSRDSSGFQSF | 4.57 5.49 3.71 | 4.59 | 4/9 (4.19)
EGDSLRYYYAN | GRNNVPS | SSADSSGFQVF | 3.59 n.d. n.d. | 3.59 | 2/9 (3.74)
EGDSLVYYYAN | DKNNYPS | SSRDSSGFQVF | 4.55 3.14 3.35 | 3.68 | 5/9 (3.77)
EGDSLVYYIAN | GKNNRPS | SSEDSSGFQVF | n.d. n.d. n.d. | n.d. | 5/9 (4.05)
EGDSLRYYYAN | GKNNRPS | SSMDSSYFQVF | 5.17 5.12 n.d. | 5.15 | 2/9 (4.26)
EGDSLRIYYHN | GKNNRPS | ISRDSSGFQVF | 4.09 4.75 3.13 | 3.99 | 4/9 (3.74)
CGDSCRYQYAN | GKNNRPS | SSRDSSGFQVF | 3.03 3.47 3.04 | 3.18 | 2/9 (3.55)
EGDSLRYYYAN | EKNNRPS | STRDSSGFQVG | 5.29 n.d. n.d. | 5.29 | 0/9
EGDPLRYYYAN | GKNGSPS | SSRDSSGFQVF | 3.42 n.d. 4.40 | 3.91 | 5/9 (4.27)
EGDSLRYYYAN | GKNNRPS | SSRDLSSLQVF | n.d. n.d. n.d. | n.d. | 2/9 (3.64)
EGDSARYYYAN | GKNNRPS | SSRDSSGFQVF | 2.72 2.32 3.15 | 2.73 | 4/9 (4.23)

Reference: Engelhart et al. 2022, doi:10.1038/s41597-022-01779-4. File: FLAb, binding data.